In patent US12485299B2, “Antibody-immune agonist conjugate and applications thereof” (GENEQUANTUM HEALTHCARE (SUZHOU) CO., LTD., priority 2021, dated 2025):

What was measured:
[1] = tested on: NCI-N87 human gastric cancer cells; test: In vivo anti-tumor efficacy, NCI N87 CDX model (HER2 AIAC); set-up: species or system SCID Beige mice; conditions: for anti-tumor activity (tumor volume): 5 mg/kg intravenously, NCI-N87 in SCID Beige mice
Description: For in vivo anti-tumor efficacy study, 1×10^7 NCI-N87 human gastric cancer cells were inoculated subcutaneously in the right flank in SCID Beige mice. […] The tumor volume was measured twice weekly with calipers.

[2] = tested on: JIMT1 human breast cancer cells; test: In vivo anti-tumor efficacy, JIMT1 CDX model; conditions: 5 mg/kg intravenously, JIMT1 in SCID Beige mice
Excerpt: 5×10^6 JIMT1 human breast cancer cells were inoculated subcutaneously in the right flank in SCID Beige mice to generate xenograft model.

[3] = tested on: MC38hHER2 murine colorectal cancer cells overexpressing human HER2; test: In vivo anti-tumor efficacy, MC38 model overexpressing hHER2; conditions: 10 mg/kg intravenously, MC38hHER2 in C57BL/6 mice

| Substance | anti-tumor activity (tumor volume) [1] | anti-tumor activity (tumor volume), dose dependence ([1]; 0.5, 1, and 3 mg/kg, separate study) | tumor growth [2] | anti-tumor activity (tumor volume) [3] |
| --- | --- | --- | --- | --- |
| AC102-8-1-1 | almost cured the tumors at the end | dose-dependent activity | significantly inhibited | – |
| Trastuzumab [Ab0001, reference compound] | very limited anti-tumor activity | – | – | no obvious anti-tumor activity |
